# Measured values as given in ChEMBL document CHEMBL1629532, “Design, synthesis, and structure-activity relationships of 3-ethynyl-1H-indazoles as inhibitors of the phosphatidylinositol 3-kinase signaling pathway” (J Med Chem, 2010).
# pIC50: −log10 of the molar value.
# Columns and labels:
# [1] = target: Phosphatidylinositol 4,5-bisphosphate 3-kinase catalytic subunit alpha isoform (Homo sapiens, UniProt P42336); assay: Inhibition of PI3Kalpha by LanthaScreen Eu kinase binding assay
# In short: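 Eu kinase binding TR-FRET assay (tracer displacement). PIK3CA/PIK3R1 at 5 nM with kinase tracer 20 nM and Eu-anti-His antibody 2 nM, all final. Buffer 25 mM Tris-HCl, 5 mM MgCl2, 0.02% CHAPS.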
# [2] = target: T1, Serine/threonine-protein kinase mTOR (Homo sapiens, UniProt P42345); assay: Inhibition of mTOR by LanthaScreen Eu kinase binding assay
# In short: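 Eu kinase binding TR-FRET displacement with FRAP1 (mTOR) at 5 nM, kinase tracer 20 nM and Eu-anti-GST antibody 2 nM, all final. Buffer 25 mM Tris-HCl, 5 mM MgCl2, 0.02% CHAPS.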
# [3] = target: T1, Serine/threonine-protein kinase mTOR; assay: Inhibition of mTORC1 expressed in HEK293 cells assessed as PRAS40 Ser183 phosphorylation level by LanthaScreen cellular assay; type: cell-based
# In short: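 HEK293E cells stably expressing GFP-substrate fusions (AKT for pThr308; PRAS40 for pSer183), 20,000 per well, serum-starved overnight in low-glucose DMEM + 0.1% BSA. Lysed with 2 nM Tb-labeled phosphospecific antibody; TR-FRET read after 2 h at room temperature. IC50 by curve fitting.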
pIC50 [1],pIC50 [2],pIC50 [3],SMILES
5.73,–,–,C(#Cc1n[nH]c2ccccc12)c1cccnc1
–,< 4.00,–,Nc1cccc(C#Cc2n[nH]c3ccccc23)c1
–,< 5.00,4.72,C(#Cc1n[nH]c2ncccc12)c1ccncc1
